Values of other authors in patent US20060160157A1, “Method, compositions and classification for tumor diagnostics and treatment” (priority 2005, published 2006).

By UniProt entry, the sequences of proteins in these tests, tags left out.
UniProt P30550, whole entry, species assumed: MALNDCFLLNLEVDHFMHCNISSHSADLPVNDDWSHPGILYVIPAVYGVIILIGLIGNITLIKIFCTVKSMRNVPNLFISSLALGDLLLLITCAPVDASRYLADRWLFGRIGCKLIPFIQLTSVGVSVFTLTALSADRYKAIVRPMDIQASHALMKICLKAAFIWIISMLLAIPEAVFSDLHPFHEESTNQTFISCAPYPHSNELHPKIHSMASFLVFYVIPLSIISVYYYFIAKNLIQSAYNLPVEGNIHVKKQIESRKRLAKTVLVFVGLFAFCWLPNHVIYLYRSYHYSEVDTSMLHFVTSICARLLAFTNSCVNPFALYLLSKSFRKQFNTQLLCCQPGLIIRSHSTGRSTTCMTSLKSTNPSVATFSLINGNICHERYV

Biological target: GRP-R (Homo sapiens, UniProt P30550)
Conditions: radiolabeled bombesin as radioligand

Substance: gastrin releasing peptide [GRP]
- GRP-R binding selectivity (rank order of affinity): GRP >bombesin> neuromedin
